Hits are enriched below; roughly 3.7% of the tested compounds scored in any of these assays.
ClpP mod – qHTS Assay for Activators of ClpP; ATP-dependent Clp protease proteolytic subunit (Bacillus subtilis (strain 168)), P80244; purified B. subtilis ClpP, FRET peptide cleavage, 20 min; Potency, µM (series often up to 57.5 µM); 1.9% of 340,000 active; active means well fitted falling curve with a large enough effect; inconclusive means small, poorly fitted or top-dose-only effect; inactive means no such curve, though single readings can be large or run the other way; further: the source files actives as falling curves though it sought activators and does not explain the sign; nearly all actives have a fitted effect of over 65% in size
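FRET quenching reversal measured ClpP activation: 10 microg/mL B. subtilis ClpP at pH 8 with the FRET-FV decapeptide, read at 430 nm after 320 nm excitation. The 20-min minus 0-min signal was scaled between DMSO/no-enzyme wells and ADEP (5.8 microM final).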
Nrf2 inh – Nrf2 pathway inhibition | 2.1% of 360,000 active | A549 ARE-Fluc reporter, luciferase luminescence, 18-24 h | Potency, µM (series often up to 46 µM), hits mostly inhibitors; further: nearly all actives have a fitted effect of over 60% in size
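A549 ARE_Fluc cells, 5000/well, 5% FBS OPTI-MEM; compounds in dose-response, 18-24 h at 37 °C/5% CO2; CellTiter-Fluor viability read (Ex 405/Em 525), then BugLite luciferase luminescence = Nrf2 activity.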
TCR activator – activators of T cell receptors; primary human leukocytes, anti-CD3, IL-2 HTRF, 48 h; Potency, µM (doses to about 9.22 µM), usual class: activators; 330,000 tested, under 10 active; AID 504894
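1) Mix primary human leukocytes, a-CD3 beads and compound. 2) Incubate 48 hr. 3) Add HTRF IL-2 reagents (a-IL-2-K, a-IL-2-d2).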
Nrf2 ARE act – activates Nrf2 signaling; AREc32 ARE-luciferase reporter (MCF7-derived line), luminescence, 24 h; 0.31% of 410,000 active; Potency, µM (doses to about 46.1 µM), usual class: activators; AID 624171; further: nearly all actives have a fitted effect of over 65% in size
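For detection, Steady-Glo was added and plates sat 30 min at RT; before that, AREc32_Fluc cells grown overnight in OPTI-MEM/5% FBS had been treated with 23 nL compound for 24 hr at 37 deg C.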
A549 viability – A549 cytotoxicity, counter-screen for Nrf2 inhibitors | Potency, µM (doses to about 46 µM), actives largely listed as inhibitors | A549 ARE-Fluc cells, CellTiter-Fluor viability, 18-24 h | 0.16% of 390,000 active
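A549 ARE_Fluc cells in 5% FBS OPTI-MEM were exposed to compounds in concentration-response for 18-24 h at 37 deg C. Viability was read by CellTiter-Fluor fluorescence (Ex 405/Em 525) after 30 min, before the luciferase read.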
miR-21 FLuc – miR-21 reporter, rising signal | HeLa miR-21 FLuc reporter, luciferase, 48 h | Potency, µM (highest dose often 38.3 µM) | 340,000 tested, under 10 active | AID 2288; active = well fitted rising curve with a large enough effect; inconclusive = small, poorly fitted or top-dose-only effect; inactive = no such curve, though single readings can be large or run the other way;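 further: miR-21 action dims this reporter so a rising signal means less miR-21 action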
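HeLa miR-21-FLuc reporter line, endogenous miR-21; 2000 cells/well in DMEM/10% FBS; compound titration up to ~40uM final, 48 h, 37 degree Celsius; luciferase detection reagent, 15 min lysis, CCD luminescence.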
A number is an active result; - = inactive; ? = inconclusive; . = no result given. Unless noted, the call rests on the fitted dose curve; in most records, active means well fitted curve in the direction sought with a large enough effect; inconclusive means small, poorly fitted or top-dose-only effect, or another doubt; inactive means no such curve, though single readings can be large; an effect the other way counts as inactive or inconclusive.

SMILES | ClpP mod | Nrf2 inh | TCR activator | Nrf2 ARE act | A549 viability | miR-21 FLuc
O=C(N/N=C\c1ccc([N+](=O)[O-])o1)C1COc2ccccc2O1 (configuration not stated) | . | ? | - | - | - | -
O=C(N/N=C/c1ccc([N+](=O)[O-])o1)c1ccncc1 | . | ? | - | - | ? | -
O=C(N/N=C/c1ccc([N+](=O)[O-])o1)C1CCCC1 | - | 16µM | - | - | ? | -
O=[N+]([O-])c1ccc(/C=[N+](\[O-])[C@@H]2CCCC[C@@H]2/[N+]([O-])=C/c2ccc([N+](=O)[O-])o2)o1 | - | - | - | 10µM | 21µM | -
CC1CCCC(NC(=O)C2CCN(S(=O)(=O)c3cccc4nonc34)CC2)C1C (configuration not stated) | . | - | - | - | - | -
COc1cccc(-n2c(-c3ccc(Cl)cc3)cc3c2CC(C)(C)CC3=O)c1 | - | - | . | - | - | -
COc1ccc(N(Cc2ccccc2)C(=O)CSc2nnc(Cn3nnc4ccccc43)o2)cc1 | - | ? | - | - | - | -
COc1ccc(CN(C(=O)CSc2nnc(-c3ccc(F)cc3)o2)c2ccc(F)cc2)cc1 | - | ? | - | - | - | -
O=C(CSc1nnc(Cn2nnc3ccccc32)o1)N(Cc1ccc(F)cc1)c1ccccc1 | - | 5.8µM | - | - | ? | -
COc1ccc(CN(C(=O)CSc2nnc(-c3c[nH]c4ccccc34)o2)c2ccc(F)cc2)cc1OC | - | 12µM | - | - | ? | -
O=C(Nc1cccc2ccccc12)/C(Cl)=C/c1ccccc1 | - | . | - | 10µM | - | -
CCN(C[C@H]1N[C@@](Cc2ccccc2)(C(=O)OC)[C@H]2C(=O)N(Cc3ccccc3)C(=O)[C@@H]12)C(=O)C1CCCCC1 | - | 15µM | - | - | ? | .
Brc1cc(Br)c2ncnc(N3CCCCC3)c2c1 | - | 26µM | - | - | ? | -
Clc1ccc(-n2ncc3c(N4CCCCCC4)ncnc32)cc1 | - | ? | - | - | - | -
COC(=O)c1c(-c2cccs2)csc1NC(=O)c1cc(OC)c(OC)c(OC)c1 | - | - | . | - | - | -
O=c1[nH]nc(Cc2ccc(-c3cccc(Cl)c3)o2)c2ccccc12 | - | 21µM | - | - | - | -
CCOC(=O)c1sc2nc(CC(=O)OC)nc(NCc3ccc(F)cc3)c2c1C | 3.5µM | 10µM | - | - | ? | -
CCOC(=O)c1sc2nc(C)nc(NCc3ccc(Cl)cc3)c2c1C | - | 18µM | - | - | - | -
CCCNC(=O)C[C@@H]1CC[C@H]2NC[C@H](O)COC[C@@H]2O1 | - | . | . | . | . | .
CCc1ccc(-n2nnc(-c3nsc(NC(=O)c4ccccc4Cl)n3)c2C)cc1 | - | 18µM | . | - | - | -
Cc1cc(C)cc(-n2nnc(-c3nsc(NC(=O)c4ccccc4Cl)n3)c2C)c1 | - | - | . | - | - | -
CCOc1cc(-c2ccc(OC(=O)c3ccc(C)cc3)c(OC)c2)cc(=O)c2c(C)oc(C)c12 | - | ? | . | - | - | -
COC1=CC(=O)c2ccccc2C1=O | - | 23µM | - | - | ? | .
COC1=CC(=O)C=C(OC)C1=O | - | ? | - | - | - | .
CCc1cccc(C)c1NC(=O)CSc1nc2ccccc2nc1N1CCOCC1 | - | - | . | - | - | -
SMILES | ClpP mod | Nrf2 inh | TCR activator | Nrf2 ARE act | A549 viability | miR-21 FLuc
Cc1cc2oc(C(=O)NC3CCS(=O)(=O)C3)c(C)c2cc1C (configuration not stated) | 28µM | . | - | - | - | -
COc1ccc(Nc2nc(N)c([N+](=O)[O-])c(N3CCOCC3)n2)cc1 | - | - | - | - | - | -
Cc1cccc(Nc2nc(N)c([N+](=O)[O-])c(NCCO)n2)c1 | - | ? | - | - | - | -
Nc1nc(Nc2ccccc2)nc(N2CCOCC2)c1[N+](=O)[O-] | 16µM | - | - | - | - | -
Cc1cccc(Nc2nc(N)c([N+](=O)[O-])c(N3CC(C)OC(C)C3)n2)c1 (configuration not stated) | - | 18µM | - | - | ? | -
CCN1CCN(c2nc(Nc3cccc(OC)c3)nc(N)c2[N+](=O)[O-])CC1 | - | - | - | - | ? | -
Cc1cccc(Nc2nc(N)c([N+](=O)[O-])c(N3CC(C)CC(C)C3)n2)c1 (configuration not stated) | - | 16µM | - | - | 21µM | -
Cc1cccc(Nc2nc(N)c([N+](=O)[O-])c(N3CCC(C)CC3)n2)c1 | - | 18µM | - | - | ? | -
COc1ccc(CNC(=O)CN(c2ccccc2OC)S(=O)(=O)c2ccc(C)cc2)cc1 | - | . | . | - | - | -
COc1ccc(NC(=O)c2cc(-c3sc(NC(=O)c4ccccc4)nc3C)n(CCO)n2)cc1 | - | . | . | . | . | .
Cc1cccc(CCNC(=O)c2cc3c(s2)-c2c(C)cccc2OC3)c1 | - | ? | . | - | - | -
Cc1cccc2c1-c1sc(C(=O)NCCc3ccc(Cl)cc3)cc1CO2 | - | 23µM | . | - | - | -
COc1ccc(CCNC(=O)c2cc3c(s2)-c2ccccc2OC3)cc1OC | - | 23µM | . | - | - | -
CCCS(=O)(=O)NC(=O)C1(C)CCN(C(=O)c2ccc(OC(F)F)cc2)C1 (configuration not stated) | - | . | . | - | . | .
COC(=O)c1cc(=O)n(-c2ccc(F)cc2)c(=Nc2ccc(F)cc2)s1 | - | 21µM | - | - | ? | -
Cc1ccccc1NC(=O)c1ccc(CNS(=O)(=O)c2ccc3c(c2)C(C)(C)C(=O)N3C)cc1 | - | - | . | - | - | -
Cc1cccc(NC(=O)c2ccc(CNS(=O)(=O)c3ccc4c(c3)C(C)(C)C(=O)N4C)cc2)c1 | - | 21µM | . | - | - | ?
Cc1ccc(NC(=O)c2ccc(CNS(=O)(=O)c3ccc4c(c3)C(C)(C)C(=O)N4C)cc2)cc1C | - | 18µM | . | - | - | ?
CCC(C)NC(=O)c1ccc(CNS(=O)(=O)c2ccc3c(c2)C(C)(C)C(=O)N3C)cc1 (configuration not stated) | - | - | - | - | - | -
COc1cccc(NC(=O)c2ccc(CNS(=O)(=O)c3ccc4c(c3)C(C)(C)C(=O)N4C)cc2)c1 | - | 16µM | . | - | - | ?
CCCCn1c(N)c(N(C)C(=O)c2ccc(-n3cccn3)cc2)c(=O)[nH]c1=O | - | - | - | - | - | .
CCc1ccc(NC(=O)Cn2nnc(C(=O)Nc3ccc(F)cc3)c2N)cc1 | - | ? | . | - | - | -
COc1cc(Br)cc(/C=N/NC(=O)Cc2ccc(C(F)(F)F)cc2[N+](=O)[O-])c1O | - | 16µM | - | - | ? | -

Compound activity deposited in PubChem by National Center for Advancing Translational Sciences (NCATS).
